Apparent affinities of Ab-91 variants for a coronavirus HR2 peptide

From the AlphaSeq antibody data of Engelhart et al. 2022 (doi:10.1038/s41597-022-01779-4), copy in the FLAb collection.

Binding partner: SARS-CoV-2 spike HR2 peptide, sequence PDVDLGDISGINAS.

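Phage display of a naive human antibody library on the peptide gave the parent. Library AAYL51 holds single substitutions and randomly drawn double and triple substitutions in the CDRs. The scFvs were displayed on barcoded MATa yeast, the peptide on MATalpha yeast. Pairs that bind mate more often; barcode pairs of the diploids are counted by sequencing. Each replicate has its own calibration line, from reference interactions of the BCL2 family. The assay was run in three technical replicates.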

The variants keep the light chain, the linker and the frameworks of Ab-91 (scFv order VL, the linker GGGGSGGGGSGGGGS, VH).
VL: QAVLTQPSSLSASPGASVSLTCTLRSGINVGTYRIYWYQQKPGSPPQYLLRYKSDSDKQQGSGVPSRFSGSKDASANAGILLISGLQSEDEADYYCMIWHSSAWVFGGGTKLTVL
VH: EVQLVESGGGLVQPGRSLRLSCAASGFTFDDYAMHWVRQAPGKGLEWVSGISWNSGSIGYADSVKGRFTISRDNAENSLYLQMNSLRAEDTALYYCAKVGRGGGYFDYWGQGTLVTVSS

Substitutions are numbered in sequence along the VH above, starting at 1 (not Kabat).
Values are log10 of the apparent Kd in nM; lower means stronger binding.
The mean shown is taken over the replicates in which the pair was detected.
"nd" marks a missing value. The strain was present, yet no cells mated with the target were sequenced in that replicate, which points to weak or no binding.
Parent in this assay: reference entry 1.86, copy in this library 0.88.
Background: pairings of library AAYL51 with three empty control strains gave a value in 21% of cases (median 4.54, 5th percentile 3.26). Values in that range, when seen in few replicates, are hard to tell from nonspecific mating. Also given: how often the same scFv was detected with the empty control strains, with their mean in brackets.

changes	log10 Kd (nM) by replicate	mean, log10 nM	empty controls
G50C A61E Y105V	3.86 / nd / nd	3.86	1 of 9 (3.40)
F29R D30P R101E	nd / nd / nd	nd	0 of 9
V64P V99R D107A	5.00 / 5.29 / nd	5.15	6 of 9 (4.70)
S52F R101F	nd / nd / nd	nd	0 of 9
D30F A33P I51W	5.26 / 4.21 / nd	4.74	3 of 9 (4.37)
G50I N54W A61V	5.53 / 4.62 / nd	5.08	2 of 9 (4.64)
W53D V99M Y108R	nd / nd / 4.08	4.08	4 of 9 (4.21)
F27I S52I G103K	nd / nd / nd	nd	3 of 9 (4.20)
A33C M34W S55D	nd / nd / nd	nd	1 of 9 (3.58)
D62H S63R G103I	3.13 / 2.77 / 2.48	2.79	2 of 9 (5.02)
H35P I58C	nd / 5.49 / nd	5.49	3 of 9 (4.66)
A33Y Y60I G103Y	4.03 / nd / 6.36	5.19	9 of 9 (5.30)
T28K V64S Y108L	nd / nd / nd	nd	1 of 9 (2.62)
F29Y S55C G103D	5.53 / nd / nd	5.53	2 of 9 (3.86)
G59F Y60C G100N	nd / nd / nd	nd	2 of 9 (4.85)
A33D H35T G102R	5.19 / 4.41 / nd	4.80	7 of 9 (4.55)
G56K I58A S63W	1.01 / 0.79 / 0.63	0.81	2 of 9 (3.45)
F27T H35A Y105Q	nd / nd / nd	nd	1 of 9 (4.83)
W53E G103F	4.42 / 3.99 / nd	4.21	4 of 9 (4.35)
G26D T28Y F29R	1.00 / 1.63 / 1.01	1.21	1 of 9 (4.45)
K65Q G100R	4.59 / nd / 4.77	4.68	4 of 9 (4.28)
F29C N54W Y60R	nd / nd / nd	nd	1 of 9 (4.88)
S52W G103E D107W	4.82 / nd / nd	4.82	2 of 9 (5.12)
D30E H35M A61F	nd / nd / nd	nd	0 of 9
I58K D62Q V64F	1.49 / 2.52 / 2.32	2.11	0 of 9
F29L Y108P	nd / nd / 4.42	4.42	5 of 9 (4.25)
S52A S63R G104H	nd / nd / nd	nd	2 of 9 (4.82)
G59W F106C	4.27 / nd / 6.09	5.18	8 of 9 (4.99)
A61L V99M G104S	nd / nd / nd	nd	2 of 9 (3.37)
M34K H35E G104W	nd / nd / nd	nd	0 of 9
S57V D107K Y108G	nd / nd / 3.51	3.51	0 of 9
F27H T28E D30Q	2.31 / 2.26 / 2.16	2.25	3 of 9 (4.10)
T28N A33K S57E	5.77 / nd / nd	5.77	3 of 9 (3.98)
T28K S63H	0.95 / 0.78 / 0.43	0.72	1 of 9 (3.58)
T28N A33N G104T	4.98 / 4.36 / nd	4.67	3 of 9 (3.89)
F29N S55F V99M	nd / nd / nd	nd	0 of 9
G50E S55E S63P	3.42 / nd / nd	3.42	1 of 9 (4.33)
F27T M34V F106G	4.34 / 5.83 / nd	5.08	4 of 9 (4.45)
K65G G103T	1.64 / 1.99 / 2.00	1.88	1 of 9 (3.82)
N54R G56K D107Y	nd / nd / 4.54	4.54	3 of 9 (4.33)
H35G N54D S57M	4.18 / nd / nd	4.18	4 of 9 (5.14)
A33R K65L V99F	3.79 / 4.98 / nd	4.38	1 of 9 (4.10)
N54P G56W I58S	nd / nd / nd	nd	1 of 9 (3.36)
H35M S55D S63M	5.53 / nd / nd	5.53	1 of 9 (4.06)
H35P V99T	4.40 / nd / nd	4.40	0 of 9
A33V H35P G100D	nd / nd / nd	nd	2 of 9 (3.83)
Y32W H35N G102C	4.14 / nd / nd	4.14	0 of 9
G50N S55E S57V	3.87 / nd / 4.33	4.10	1 of 9 (4.93)
A33V Y60L K65P	nd / nd / nd	nd	0 of 9
G104Q	nd / nd / nd	nd	1 of 9 (3.33)
A33V S55L	nd / nd / nd	nd	4 of 9 (5.04)
G26P F27T D107T	3.87 / nd / nd	3.87	1 of 9 (3.51)

The last 4 entries again:

changes	log10 Kd (nM) by replicate	mean, log10 nM	empty controls
A33V Y60L K65P	nd / nd / nd	nd	0 of 9
G104Q	nd / nd / nd	nd	1 of 9 (3.33)
A33V S55L	nd / nd / nd	nd	4 of 9 (5.04)
G26P F27T D107T	3.87 / nd / nd	3.87	1 of 9 (3.51)